pKi: −log10 of the molar value.
How the values were obtained:
[1] = target: Sodium-dependent noradrenaline transporter (Homo sapiens, UniProt P23975); assay: Ratio of norepinephrine uptake to norepinephrine binding
[2] = target: Sodium-dependent dopamine transporter (Homo sapiens, UniProt Q01959); assay: Binding affinity against cloned human dopamine transporter using 40-80 pM [125I]RTI.
Outline: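 Membranes from cells expressing recombinant human transporters: DAT in C6 cells, later HEK293; SERT and NET in HEK293. Cells lysed (2 mM HEPES, 1 mM EDTA), spun at 30000g, resuspended in 0.32 M sucrose, about 15 µg protein. GF/C filtration. Duplicates; IC50 converted to Ki by Cheng-Prusoff.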

Sequences of proteins named here, by UniProt entry; tags and fusion partners are left off.
UniProt Q01959, whole entry: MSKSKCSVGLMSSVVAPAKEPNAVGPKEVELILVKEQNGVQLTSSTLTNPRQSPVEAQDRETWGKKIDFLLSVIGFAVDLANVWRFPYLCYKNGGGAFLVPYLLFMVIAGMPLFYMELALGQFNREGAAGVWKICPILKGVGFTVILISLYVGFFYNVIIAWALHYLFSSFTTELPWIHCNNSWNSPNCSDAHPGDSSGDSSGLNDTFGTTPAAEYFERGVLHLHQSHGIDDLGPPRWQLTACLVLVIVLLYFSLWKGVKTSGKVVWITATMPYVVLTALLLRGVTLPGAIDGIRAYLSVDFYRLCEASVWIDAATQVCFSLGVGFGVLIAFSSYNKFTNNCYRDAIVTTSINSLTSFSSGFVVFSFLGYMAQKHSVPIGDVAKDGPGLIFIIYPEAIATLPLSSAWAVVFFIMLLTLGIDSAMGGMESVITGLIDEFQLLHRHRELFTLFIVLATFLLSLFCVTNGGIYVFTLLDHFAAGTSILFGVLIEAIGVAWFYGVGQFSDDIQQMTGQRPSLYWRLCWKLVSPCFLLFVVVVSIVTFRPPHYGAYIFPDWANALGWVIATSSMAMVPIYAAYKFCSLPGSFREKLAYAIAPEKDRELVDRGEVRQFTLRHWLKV
UniProt P31645, whole entry, looked up: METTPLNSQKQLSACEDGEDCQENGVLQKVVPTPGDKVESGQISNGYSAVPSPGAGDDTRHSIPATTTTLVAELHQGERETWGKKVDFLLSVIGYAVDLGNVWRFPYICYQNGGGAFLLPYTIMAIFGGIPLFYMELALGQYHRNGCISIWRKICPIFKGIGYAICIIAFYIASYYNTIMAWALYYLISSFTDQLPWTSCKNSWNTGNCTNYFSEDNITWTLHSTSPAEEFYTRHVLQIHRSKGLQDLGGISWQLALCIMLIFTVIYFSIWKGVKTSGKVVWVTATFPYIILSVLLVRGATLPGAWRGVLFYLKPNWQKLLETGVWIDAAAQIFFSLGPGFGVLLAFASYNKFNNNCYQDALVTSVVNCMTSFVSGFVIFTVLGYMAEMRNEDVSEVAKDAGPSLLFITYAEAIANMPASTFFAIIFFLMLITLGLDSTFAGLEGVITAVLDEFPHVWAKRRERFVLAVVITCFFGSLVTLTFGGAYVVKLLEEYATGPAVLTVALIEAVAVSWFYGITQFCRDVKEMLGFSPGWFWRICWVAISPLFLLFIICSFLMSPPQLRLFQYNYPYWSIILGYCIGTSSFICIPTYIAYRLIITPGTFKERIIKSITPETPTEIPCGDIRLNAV

[3] = target: Sodium-dependent serotonin transporter (Homo sapiens, UniProt P31645); assay: Ratio of serotonin uptake to serotonin binding

| Compound | Ratio [1] | pKi [2] | Ratio [3] |
| --- | --- | --- | --- |
| CC(C)N(C)[C@H]1C[C@@H](c2ccc(Cl)c(Cl)c2)c2ccccc21 | 2.8 |  |  |
| CC(C)N(C)[C@@H]1C[C@@H](c2ccc(Cl)c(Cl)c2)c2ccccc21 | 1.6 |  |  |
| CCCN(C)[C@H]1C[C@@H](c2ccc(Cl)c(Cl)c2)c2ccccc21 (relative stereo) |  | 5.92 |  |
| Clc1ccc([C@@H]2C[C@@H](NCc3ccccc3)c3ccccc32)cc1Cl (relative stereo) | 5.7 |  |  |
| CN(C)[C@H]1C[C@@H](c2ccc(Cl)c(Cl)c2)c2ccccc21 (relative stereo) | 0.57 |  |  |
| CN(C)[C@@H]1C[C@@H](c2ccc(Cl)c(Cl)c2)c2ccccc21 (relative stereo) | 0.36 |  |  |
| CN(C)[C@@H]1C[C@@H](c2ccc(Cl)c(Cl)c2)c2ccccc21 (stereo in doubt; (+)) | 0.4 |  |  |
| CN(C)[C@@H]1C[C@@H](c2ccc(Cl)c(Cl)c2)c2ccccc21 (stereo in doubt; (-)) | 1 |  | 36 |
